US8846929B2, “Substituted-quinoxaline-type piperidine compounds and the uses thereof” (priority 2007, dated 2014)

Amino acid sequences for entries named in this document (tags omitted). A change or cut given only in a name is not applied to a line headed by its entry.
UniProt P41146: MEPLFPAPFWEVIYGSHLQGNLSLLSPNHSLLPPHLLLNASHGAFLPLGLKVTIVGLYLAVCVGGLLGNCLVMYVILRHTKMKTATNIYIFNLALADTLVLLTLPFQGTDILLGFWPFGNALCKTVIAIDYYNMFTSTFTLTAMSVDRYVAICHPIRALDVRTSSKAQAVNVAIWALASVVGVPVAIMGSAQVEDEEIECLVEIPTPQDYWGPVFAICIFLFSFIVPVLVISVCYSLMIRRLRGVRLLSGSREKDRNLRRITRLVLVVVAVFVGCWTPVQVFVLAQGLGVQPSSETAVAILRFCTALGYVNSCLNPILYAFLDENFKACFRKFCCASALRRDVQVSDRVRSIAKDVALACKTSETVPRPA
UniProt P35372: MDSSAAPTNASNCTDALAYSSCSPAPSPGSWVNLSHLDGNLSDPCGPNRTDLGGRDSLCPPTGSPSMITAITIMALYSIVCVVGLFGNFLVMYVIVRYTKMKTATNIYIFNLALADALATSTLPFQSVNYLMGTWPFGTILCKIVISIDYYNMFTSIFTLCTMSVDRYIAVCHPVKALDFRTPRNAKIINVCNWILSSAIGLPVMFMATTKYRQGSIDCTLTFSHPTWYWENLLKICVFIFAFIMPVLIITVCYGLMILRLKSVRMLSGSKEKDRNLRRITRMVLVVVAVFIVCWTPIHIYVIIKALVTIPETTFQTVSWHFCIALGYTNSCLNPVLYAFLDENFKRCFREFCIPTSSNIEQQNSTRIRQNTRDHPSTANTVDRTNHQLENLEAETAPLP
UniProt P41143: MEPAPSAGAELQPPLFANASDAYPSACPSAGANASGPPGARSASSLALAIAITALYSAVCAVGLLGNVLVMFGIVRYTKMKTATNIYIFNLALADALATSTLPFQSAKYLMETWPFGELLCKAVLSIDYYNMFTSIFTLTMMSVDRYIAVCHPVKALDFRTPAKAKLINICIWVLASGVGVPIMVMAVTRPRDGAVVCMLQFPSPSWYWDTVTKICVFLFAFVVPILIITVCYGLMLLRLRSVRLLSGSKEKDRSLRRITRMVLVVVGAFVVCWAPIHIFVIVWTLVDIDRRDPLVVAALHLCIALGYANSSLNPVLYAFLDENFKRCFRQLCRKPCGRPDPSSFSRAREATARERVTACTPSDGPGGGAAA
UniProt P41145: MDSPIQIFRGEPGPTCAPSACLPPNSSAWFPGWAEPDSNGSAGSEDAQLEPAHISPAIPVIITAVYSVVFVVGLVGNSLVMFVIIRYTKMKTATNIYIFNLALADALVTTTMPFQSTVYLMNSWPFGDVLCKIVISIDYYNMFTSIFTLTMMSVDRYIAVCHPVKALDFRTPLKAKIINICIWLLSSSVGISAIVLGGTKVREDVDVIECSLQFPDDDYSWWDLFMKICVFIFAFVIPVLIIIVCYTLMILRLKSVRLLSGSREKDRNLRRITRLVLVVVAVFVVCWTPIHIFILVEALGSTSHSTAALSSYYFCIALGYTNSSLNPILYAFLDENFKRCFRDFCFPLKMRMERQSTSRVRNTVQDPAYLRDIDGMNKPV
UniProt Q12809: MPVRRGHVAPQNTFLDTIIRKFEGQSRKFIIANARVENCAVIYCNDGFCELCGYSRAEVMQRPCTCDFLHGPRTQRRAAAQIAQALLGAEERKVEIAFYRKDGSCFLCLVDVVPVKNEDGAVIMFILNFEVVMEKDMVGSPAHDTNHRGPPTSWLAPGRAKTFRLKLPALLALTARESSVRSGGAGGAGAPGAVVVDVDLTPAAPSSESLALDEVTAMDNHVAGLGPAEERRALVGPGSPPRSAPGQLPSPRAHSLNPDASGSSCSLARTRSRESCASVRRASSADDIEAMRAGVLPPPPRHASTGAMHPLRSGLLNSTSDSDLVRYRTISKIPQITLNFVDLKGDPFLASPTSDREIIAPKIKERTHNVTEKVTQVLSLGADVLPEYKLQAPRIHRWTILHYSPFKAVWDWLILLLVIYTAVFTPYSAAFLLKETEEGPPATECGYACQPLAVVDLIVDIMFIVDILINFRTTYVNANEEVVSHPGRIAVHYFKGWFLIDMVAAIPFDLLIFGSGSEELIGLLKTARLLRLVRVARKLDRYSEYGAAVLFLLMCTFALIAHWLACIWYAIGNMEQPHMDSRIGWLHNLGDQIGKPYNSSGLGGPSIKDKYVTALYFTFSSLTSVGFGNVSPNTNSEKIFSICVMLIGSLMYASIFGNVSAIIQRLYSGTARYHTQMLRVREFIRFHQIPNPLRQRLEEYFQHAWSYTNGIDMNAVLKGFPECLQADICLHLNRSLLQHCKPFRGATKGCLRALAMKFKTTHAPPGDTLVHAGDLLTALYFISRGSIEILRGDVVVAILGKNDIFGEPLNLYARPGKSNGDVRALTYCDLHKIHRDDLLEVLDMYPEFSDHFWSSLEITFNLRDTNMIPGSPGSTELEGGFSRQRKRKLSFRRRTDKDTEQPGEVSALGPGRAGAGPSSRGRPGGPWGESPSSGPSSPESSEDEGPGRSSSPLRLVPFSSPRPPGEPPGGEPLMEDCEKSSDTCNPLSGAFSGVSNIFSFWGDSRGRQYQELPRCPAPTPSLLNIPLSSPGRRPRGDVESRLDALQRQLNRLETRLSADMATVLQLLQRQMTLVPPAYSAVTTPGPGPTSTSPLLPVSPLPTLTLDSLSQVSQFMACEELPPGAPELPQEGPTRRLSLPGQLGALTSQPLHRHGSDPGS

What was measured:
[1] = Abnormal behavioral side effects (sedation, hyperactivity, hypoactivity); settings: in vivo
[2] = test system: FCA-induced inflammation of the rat hind paw; assay: Freund's complete adjuvant (FCA) model of inflammatory pain; format: in vivo
[3] = target: T1, human opioid receptor-like (ORL-1) (Homo sapiens (Human), UniProt P41146); assay: In vitro ORL-1 receptor [35S]GTPγS functional assay; format: biochemical; settings: mean ± SEM; for EC50: read-out: GTPγS ORL-1 EC50
[4] = target: T2, μ-opioid receptor (Homo sapiens (Human), UniProt P35372); assay: In vitro mu-opioid receptor binding assay ([3H]-diprenorphine displacement); settings: read-out: Ki [Average ± Std Deviation] Opioid Receptor Mu
[5] = target: delta opioid receptor (Homo sapiens (Human), UniProt P41143); assay: In vitro delta-opioid receptor binding assay ([3H]-Naltrindole displacement); settings: read-out: Ki [Average ± Std Deviation] Opioid Receptor Delta; recombinant receptor expressed in CHO-K1 cells
[6] = target: T1, human opioid receptor-like (ORL-1); assay: In vitro ORL-1 receptor binding assay ([3H]-nociceptin displacement); settings: read-out: Ki [Average ± Std Deviation] ORL-1; membranes from recombinant HEK-293 cells
[7] = target: T2, μ-opioid receptor; assay: In vitro mu-opioid receptor [35S]GTPγS functional assay; settings: mean ± SEM; for EC50: read-out: GTPγS Opioid Receptor Mu EC50
[8] = target: T3, kappa opioid receptor (Homo sapiens (Human), UniProt P41145); assay: In vitro kappa-opioid receptor binding assay ([3H]-U69,593 displacement); settings: read-out: Ki [Average ± Std Deviation] Opioid Receptor Kappa; membranes from recombinant HEK-293 cells
[9] = target: T3, kappa opioid receptor; assay: In vitro kappa-opioid receptor [35S]GTPγS functional assay; format: biochemical; settings: mean ± SEM; for EC50: read-out: GTPγS Opioid Receptor Kappa EC50
[10] = target: HERG channels (Homo sapiens (Human), UniProt Q12809); assay: In vitro hERG (human ether a-go-go gene) assay
[11] = test system: guinea pig purkinje fibers; assay: APD (action potential duration) in guinea pig purkinje fibers

## O=C(O)c1nc2ccccc2n([C@H]2C[C@H]3CC[C@@H](C2)N3C2CCCCCCCCCC2)c1=O [listing 1 of 2 here]
[1]
  abnormal behavioral side effects, such as sedation, hyperactivity and/or hypoactivity: reduced abnormal behavioral side effects

## O=C(O)c1nc2ccccc2n([C@H]2C[C@H]3CC[C@@H](C2)N3C2CCCCCCC2)c1=O
[2]; 1 hour after administration
  ED50 value for reversal of thermal hyperalgesia: 8.5 mg/kg
[2]; 3 hours after administration
  ED50 value for reversal of thermal hyperalgesia: 4.0 mg/kg
[2]; 5 hours after administration
  ED50 value for reversal of thermal hyperalgesia: 7.8 mg/kg
[2]; at 3 hours after administration
  maximum % reversal of thermal hyperalgesia: about 80%

## O=C(O)c1nc2ccccc2n([C@H]2C[C@H]3CC[C@@H](C2)N3C2CCCCCCCCCC2)c1=O [listing 2 of 2 here]
[2]; 5 mg/kg dose, 1 hour after administration
  % reversal of thermal hyperalgesia: 34%
[2]; 5 mg/kg dose, 3 hours after administration
  % reversal of thermal hyperalgesia: 46%
[2]; 5 mg/kg dose, 5 hours after administration
  % reversal of thermal hyperalgesia: 79%

## 1-(4-((endo)-8-cyclooctyl-8-azabicyclo[3.2.1]octan-3-yl)-3-oxo-3,4-dihydroquinoxalin-2-yl)-4-hydroxypiperidine-4-carboxylic acid
[3]
  GTPγS ORL-1 Emax: 36.5%
[4]
  Ki: 0.723 µM
[5]
  Ki: 16.4 µM
[6]
  Ki: 0.0163 µM
[7]
  GTPγS Opioid Receptor Mu Emax: 11.5%
  EC50: 4.94 µM
[8]
  Ki: 0.871 µM
[9]
  GTPγS Opioid Receptor Kappa Emax: 3.3%
  EC50: 3.34 µM

## 2-(4-((endo)-8-cyclooctyl-8-azabicyclo[3.2.1]octan-3-yl)-3-oxo-3 ,4-dihydroquinoxaline-2-carboxamido)acetic acid
[3]
  GTPγS ORL-1 Emax: 102.7 ± 2.7%
  EC50: 0.209 µM
[4]
  Ki: 0.488 µM
[5]
  Ki: 17.6 µM
[6]
  Ki: 0.0157 µM
[7]
  GTPγS Opioid Receptor Mu Emax: 12.0 ± 0.8%
  EC50: 1.35 µM
[8]
  Ki: 0.25 µM
[9]
  EC50: 4.34 µM

## 2-(4-((endo)-8-cyclooctyl-8-azabicyclo[3.2.1]octan-3-yl)-3-oxo-3,4-dihydroquinoxaline-2-carboxamido)-3-(1H-imidazol-4-yl)propanoic acid
[3]
  GTPγS ORL-1 Emax: 53.3 ± 0.6%
  EC50: 0.361 µM
[4]
  Ki: 0.368 µM
[5]
  Ki: 11.3 µM
[6]
  Ki: 0.0335 µM
[7]
  GTPγS Opioid Receptor Mu Emax: 20.0 ± 0.6%
  EC50: 36.4 µM
[8]
  Ki: 0.13 µM
[9]
  GTPγS Opioid Receptor Kappa Emax: 63 ± 11%
  EC50: 46.5 µM

## 3-((R)-3-aminopyrrolidin-1-yl)-1-((endo)-8-cyclooctyl-8-azabicyclo[3.2.1]octan-3-yl)quinoxalin-2(1H)-one
[3]
  GTPγS ORL-1 Emax: 105.7 ± 5.0%
  EC50: 0.017 µM
[4]
  Ki: 0.59 µM
[5]
  Ki: 14 µM
[6]
  Ki: 0.0016 µM
[7]
  GTPγS Opioid Receptor Mu Emax: 9.7 ± 0.7%
  EC50: 4.9 µM
[8]
  Ki: 0.0149 µM
[9]
  GTPγS Opioid Receptor Kappa Emax: 15.3 ± 4.1%
  EC50: 32.8 µM

## 4-((endo)-8-cyclodecyl-8-azabicyclo[3.2.1]octan-3-yl)-3-oxo-3,4-dihydroquinoxaline-2-carboxylic acid
[3]
  GTPγS ORL-1 Emax: 106.3 ± 0.9%
  EC50: 0.0281 µM
[4]
  Ki: 0.709 µM
[5]
  Ki: 1.61 µM
[6]
  Ki: 0.0025 µM
[7]
  GTPγS Opioid Receptor Mu Emax: 14.7 ± 1.5%
  EC50: 5.71 µM
[8]
  Ki: 0.425 µM
[9]
  GTPγS Opioid Receptor Kappa Emax: 20.0%
  EC50: 1.26 µM

## 4-((endo)-8-cyclooctyl-8-azabicyclo[3.2.1]octan-3-yl)-3-oxo-N-(6-oxo-1,6-dihydropyridin-3-yl)-3,4-dihydroquinoxaline-2-carboxamide
[3]
  GTPγS ORL-1 Emax: 87.3 ± 3.9%
  EC50: 0.0676 µM
[4]
  Ki: 0.374 µM
[5]
  Ki: 17.5 µM
[6]
  Ki: 0.0075 µM
[7]
  GTPγS Opioid Receptor Mu Emax: 8.7 ± 0.3%
  EC50: 5.11 µM
[8]
  Ki: 0.161 µM
[9]
  GTPγS Opioid Receptor Kappa Emax: 8.3 ± 0.9%
  EC50: 1.36 µM

## 4-((endo)-8-cyclooctyl-8-azabicyclo[3.2.1]octan-3-yl)-N-(6-methoxypyridin-3-yl)-3-oxo-3,4-dihydroquinoxaline-2-carboxamide
[3]
  GTPγS ORL-1 Emax: 94.0 ± 3.6%
  EC50: 0.0413 µM
[4]
  Ki: 0.21 µM
[5]
  Ki: 1.71 µM
[6]
  Ki: 0.0031 µM
[7]
  EC50: 79.3 µM
[8]
  Ki: 0.0558 µM
[9]
  GTPγS Opioid Receptor Kappa Emax: 8.7 ± 0.3%
  EC50: 0.831 µM

## 4-((endo)-9-((exo)-bicyclo[3.3.1]nonan-3-yl)-9-azabicyclo[3.3.1]nonan-3-yl)-3-oxo-3,4-dihydroquinoxaline-2-carboxylic acid
[10]
  cardiovascular side effects: reduced cardiovascular side effects
[2]; 3 mg/kg dose, 1 hour after administration
  % reversal of thermal hyperalgesia: 86%
[2]; 3 mg/kg dose, 3 hours after administration
  % reversal of thermal hyperalgesia: 51%
[2]; 3 mg/kg dose, 5 hours after administration
  % reversal of thermal hyperalgesia: 27%
[2]; 1 hour after administration
  ED50 value for reversal of thermal hyperalgesia: 0.8 mg/kg
[2]; 3 hours after administration
  ED50 value for reversal of thermal hyperalgesia: 1.5 mg/kg
[2]; 5 hours after administration
  ED50 value for reversal of thermal hyperalgesia: 3.0 mg/kg
[11]
  cardiovascular side effects: reduced cardiovascular side effects

## 4-((endo)-9-cyclononyl-9-azabicyclo[3.3.1]nonan-3-yl)-3-oxo-3,4-dihydroquinoxaline-2-carboxylic acid
[3]
  GTPγS ORL-1 Emax: 96.5 ± 1.9%
  EC50: 0.0111 µM
[4]
  Ki: 0.699 µM
[5]
  Ki: 3.16 µM
[6]
  Ki: 0.0014 µM
[7]
  GTPγS Opioid Receptor Mu Emax: 17.3 ± 2.9%
  EC50: 3.39 µM
[8]
  Ki: 0.375 µM
[9]
  EC50: 1.77 µM

## 4-((endo)-9-cyclooctyl-9-azabicyclo[3.3.1]nonan-3-yl)-3-oxo-3,4-dihydroquinoxaline-2-carboxylic acid
[3]
  GTPγS ORL-1 Emax: 87.3 ± 5.0%
  EC50: 0.114 µM
[4]
  Ki: 0.679 µM
[5]
  Ki: 10.9 µM
[6]
  Ki: 0.0177 µM
[7]
  GTPγS Opioid Receptor Mu Emax: 11.0 ± 0.6%
  EC50: 3.92 µM
[8]
  Ki: 0.44 µM
[9]
  GTPγS Opioid Receptor Kappa Emax: 3.7 ± 0.3%
  EC50: 0.45 µM
[2]; 1 hour after administration
  ED50 value for reversal of thermal hyperalgesia: 2.7 mg/kg
[2]; 3 hours after administration
  ED50 value for reversal of thermal hyperalgesia: 3.8 mg/kg
[2]; 5 hours after administration
  ED50 value for reversal of thermal hyperalgesia: 2.3 mg/kg

## (2S)-2-(4-((endo)-8-cyclooctyl-8-azabicyclo[3.2.1]octan-3-yl)-3-oxo-1,2,3,4-tetrahydroquinoxaline-2-carboxamido)-3-hydroxypropanoic acid
[3]
  GTPγS ORL-1 Emax: 105.0 ± 0.6%
  EC50: 0.594 µM
[4]
  Ki: 0.422 µM
[5]
  Ki: 26 µM
[6]
  Ki: 0.0437 µM
[7]
  GTPγS Opioid Receptor Mu Emax: 10.6 ± 1.2%
  EC50: 3.58 µM
[8]
  Ki: 0.422 µM
[9]
  GTPγS Opioid Receptor Kappa Emax: 8.3 ± 0.9%
  EC50: 4.68 µM

## (2S)-2-(4-((endo)-8-cyclooctyl-8-azabicyclo[3.2.1]octan-3-yl)-3-oxo-3,4-dihydroquinoxalin-2-ylamino)-3-hydroxypropanamide
[3]
  GTPγS ORL-1 Emax: 83.3 ± 8.0%
  EC50: 0.0931 µM
[4]
  Ki: 0.196 µM
[5]
  Ki: 29.2 µM
[6]
  Ki: 0.0086 µM
[7]
  GTPγS Opioid Receptor Mu Emax: 14%
  EC50: 2.15 µM
[8]
  Ki: 0.13 µM
[9]
  EC50: 3.15 µM

## (2S)-2-(4-((endo)-8-cyclooctyl-8-azabicyclo[3.2.1]octan-3-yl)-3-oxo-3,4-dihydroquinoxaline-2-carboxamido)-3-hydroxypropanoic acid
[3]
  GTPγS ORL-1 Emax: 107.7 ± 3.7%
  EC50: 0.183 µM
[4]
  Ki: 0.462 µM
[5]
  Ki: 26.1 µM
[6]
  Ki: 0.0135 µM
[7]
  GTPγS Opioid Receptor Mu Emax: 9.7 ± 0.6%
  EC50: 1.75 µM
[8]
  Ki: 0.18 µM
[9]
  GTPγS Opioid Receptor Kappa Emax: 8.3 ± 0.3%
  EC50: 3.85 µM

## (5)-2-(4-((endo)-8-cyclooctyl-8-azabicyclo[3.2.1]octan-3-yl)-3-oxo-3,4-dihydroquinoxalin-2-ylamino)-3-phenylpropanoic acid
[3]
  GTPγS ORL-1 Emax: 69%
  EC50: 1.21 µM
[4]
  Ki: 0.377 µM
[5]
  Ki: 1.87 µM
[6]
  Ki: 0.0788 µM
[7]
  GTPγS Opioid Receptor Mu Emax: 10.5%
  EC50: 1.75 µM
[8]
  Ki: 0.534 µM
[9]
  GTPγS Opioid Receptor Kappa Emax: 3.7%
  EC50: 9.7 µM

## ethyl 4-((endo)-9-cyclooctyl-9-azabicyclo[3.3.1]nonan-3-yl)-3-oxo-3,4-dihydroquinoxaline-2-carboxylate
[3]
  GTPγS ORL-1 Emax: 58.3 ± 1.9%
  EC50: 0.103 µM
[4]
  Ki: 0.48 µM
[5]
  Ki: 41.2 µM
[6]
  Ki: 0.0403 µM
[7]
  GTPγS Opioid Receptor Mu Emax: 7.7 ± 0.6%
  EC50: 9.87 µM
[8]
  Ki: 0.0463 µM
[9]
  EC50: 6.24 µM
